Results published in patent publication US6593108B1, “Nucleic acid molecule encoding a melanin-concentrating hormone receptor 2 polypeptide” (priority 1999, dated 2003).

Chains of the proteins cited; added tags and fusions are not shown. Lines headed by an entry give the natural chain unless they say otherwise; changes in a name come on top.
UniProt Q969V1: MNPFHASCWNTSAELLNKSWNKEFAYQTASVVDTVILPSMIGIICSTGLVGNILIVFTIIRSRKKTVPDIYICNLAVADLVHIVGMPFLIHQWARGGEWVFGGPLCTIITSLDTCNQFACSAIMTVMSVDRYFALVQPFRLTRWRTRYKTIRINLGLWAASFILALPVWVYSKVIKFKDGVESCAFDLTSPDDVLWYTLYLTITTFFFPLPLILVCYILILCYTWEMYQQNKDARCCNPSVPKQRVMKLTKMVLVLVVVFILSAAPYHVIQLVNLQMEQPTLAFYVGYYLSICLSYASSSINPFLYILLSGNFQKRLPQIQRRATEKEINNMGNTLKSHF

Tests used:
[1] = molecular target: T1, HG67 (Homo sapiens, UniProt Q969V1); assay: Intracellular calcium ([Ca2+]i) measurement with fura-2 in HEK293T cells transiently expressing HG67; format: cell-based; details: read-out: EC50 of increase in intracellular calcium levels; HEK293T cells transiently expressing HG67, fura-2
T1 construct: expressed in transfected cells; host or cells: HEK-293T, transient
From the text: The entire coding sequence of human HG67 was cloned into BamHI -NotI site of pEF1/V5-HisB plasmid vector (Invitrogen, Carlsbad, Calif.). The resultant construct was transfected into HEK-293T cells using Effectene (Qiagen, Hilden, Germany) or LipofectAmine PLUS (Life Technologies) according to the manufacture's instructions. Human embryonic kidney cells constitutively expressing SV40 large T antigen (HEK-293T) were maintained in D-MEM/F-12 medium (Life Technologies, Rockville, Md.) supplemented with 10% fetal bovine serum, 100 units/ml penicillin-G and 100 μg/ml streptomycin at 37° C. with 5% CO2 in a humidified atmosphere.
The intracellular calcium ion concentration ([Ca^2+]i) was measured fluorometrically using a Ca^2+-sensitive fluorescent dye, fura-2. […] Five microliters of dimethyl sulfoxide (DMSO) solution of MCH (Peptide Institute, Osaka, Japan) or [Phe^13, Leu^19]-MCH (Neosystem Laboratories, Strasbourg, France) was added into the cell suspension, and fluorescent intensity at an emission wavelength of 500 nm and excitation wavelengths of 340 and 380 nm was monitored with a CAF-110 intracellular ion analyzer (JASCO, Tokyo, Japan).

[2] = molecular target: T1, HG67; assay: Aequorin assay in HEK293/aeq17/Gα15 cells transfected with HG67; format: cell-based; details: read-out: EC50 for HG67 in the aequorin assay, two days post transfection
From the text: The complete coding sequence of HG67 cloned in pCR3.1. (Invitrogen, Carlsbad, Calif., USA), was subcloned into pIRESpuromycin (Clontech, Inc., Palo Alto, Calif., USA). Clones were confirmed by DNA sequencing.
The HEK293/aeq17 cell line was employed to measure activity. (Button and Brownstein, 1993, Cell Calcium, 14:663-671.) The complete coding sequence of mouse promiscuous G protein Gα15 was cloned into the vector pIRES/zeocin (Clontech, Palo Alto, Calif., USA). The resulting plasmid was transfected into HEK293/aeq17 cells using Lipofectamine (GIBCO-BRL, Gaithersburg, Md., USA) and selected with zeocin. Individual stable colonies were isolated and tested for coupling of various receptors. […]
HEK/293/aeq17/Gα15 were grown in Dulbecco's Modified Medium (DMEM, GIBCO-BRL, Gaithersburg, Md., USA) +10% fetal bovine serum (heat inactivated), 1 mM sodium pyruvate, 500 μg/ml Geneticin, 200 μg/ml zeocin, 100 μg/ml streptomycin, 100 units/ml penicillin. […] The cell density was determined by counting with a hemacytometer and adjusted to 500,000 cells/ml in ECB.
Human MCH was diluted in ECB into 2× concentrates using 5-fold serial dilutions, and aliquoted into assay plates in triplicates at 0.1 ml/well. The cell suspension was injected at 0.1 ml/well, read and integrated for a total of 400 readings using a luminometer (Luminoskan Ascent, Labsystems Oy, Helsinki, Finland). […]

Substance: Melanin-concentrating hormone [MCH]
- EC50 [1]: 0.02 nM
- EC50 [2]: 26 nM
